Target: cloned human NOP receptors (Homo sapiens, UniProt P41146)
Experiment: [35S]GTPγS binding assay of receptor-mediated G-protein activation
Assay type: biochemical

Chains of the proteins cited; added tags and fusions are not shown. Lines headed by an entry give the natural chain unless they say otherwise; changes in a name come on top.
UniProt P41146: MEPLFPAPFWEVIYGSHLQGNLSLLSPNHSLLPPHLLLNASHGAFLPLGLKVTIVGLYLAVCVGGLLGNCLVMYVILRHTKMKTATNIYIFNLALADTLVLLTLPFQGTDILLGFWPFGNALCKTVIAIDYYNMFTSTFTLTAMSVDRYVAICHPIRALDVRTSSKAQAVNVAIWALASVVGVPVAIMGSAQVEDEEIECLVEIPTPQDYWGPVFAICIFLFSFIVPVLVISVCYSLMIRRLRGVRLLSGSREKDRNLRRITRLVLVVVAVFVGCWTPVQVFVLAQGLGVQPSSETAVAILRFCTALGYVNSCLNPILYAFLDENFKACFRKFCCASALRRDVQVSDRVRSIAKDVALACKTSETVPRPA

Compared with `CC(C)N(C)C(=O)[C@H](Cc1ccccc1F)CN1CCC2(CC1)OCCc1cc(F)sc12` [(R)-10a, (2R)-2-[(2-Fluorophenyl)methyl]-3-(2-fluorospiro[4,5-dihydrothieno[2,3-c]pyran-7,4'-piperidine]-1'-yl)-N-isopropyl-N-methyl-propanamide], `CC(C)N(C)C(=O)[C@@H](Cc1ccccc1F)CN1CCC2(CC1)OCCc1cc(F)sc12` [(S)-10a, (2S)-2-[(2-Fluorophenyl)methyl]-3-(2-fluorospiro[4,5-dihydrothieno[2,3-c]pyran-7,4'-piperidine]-1'-yl)-N-isopropyl-N-methyl-propanamide] is 110-fold lower in Kb: 15.8 ± 3.48 nM for the first, 0.141 ± 0.032 nM for the second.

First: CNC(=O)[C@H](Cc1ccccc1Cl)CN1CCC2(CC1)OCCc1cc(F)sc12 [(R)-10b, (2R)-2-[(2-Chlorophenyl)methyl]-3-(2-fluorospiro[4,5-dihydrothieno[2,3-c]pyran-7,4'-piperidine]-1'-yl)-N-methyl-propanamide]
Second: CNC(=O)[C@@H](Cc1ccccc1Cl)CN1CCC2(CC1)OCCc1cc(F)sc12 [(S)-10b, (2S)-2-[(2-Chlorophenyl)methyl]-3-(2-fluorospiro[4,5-dihydrothieno[2,3-c]pyran-7,4'-piperidine]-1'-yl)-N-methyl-propanamide]
The Kb of the first is 58-fold higher: 5.79 ± 1.05 nM for the first, 0.099 ± 0.048 nM for the second.

— publication PMC3081360 (Journal of medicinal chemistry, 2011)
